The target in this experiment is mouse 5-HT6 receptor (Mus musculus, UniProt Q9R1C8). The conditions noted are these: HEK293 cells, 60 minutes at room temperature, FIG. 4.

Protein sequences, listed by entry. Tags and fused reporters are not part of them.
UniProt Q9R1C8, whole entry: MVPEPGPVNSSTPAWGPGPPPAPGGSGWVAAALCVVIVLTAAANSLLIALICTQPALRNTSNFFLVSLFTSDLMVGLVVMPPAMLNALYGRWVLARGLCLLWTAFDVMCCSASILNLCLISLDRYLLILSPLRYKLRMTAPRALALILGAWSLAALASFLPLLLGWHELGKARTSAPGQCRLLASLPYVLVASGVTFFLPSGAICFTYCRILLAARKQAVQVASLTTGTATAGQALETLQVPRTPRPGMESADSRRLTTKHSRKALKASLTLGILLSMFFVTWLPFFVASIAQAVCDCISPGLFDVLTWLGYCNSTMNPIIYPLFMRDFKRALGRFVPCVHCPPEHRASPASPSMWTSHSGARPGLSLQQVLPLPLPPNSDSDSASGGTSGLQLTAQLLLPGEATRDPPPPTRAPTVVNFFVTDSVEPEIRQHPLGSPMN

For the compound `Cc1[nH]c2ccc(Cl)cc2c1C1=CCNCC1` [Compound A, 5-Chloro-2-methyl-3-(1,2,3,6-tetrahydro-pyridin-4-yl)-1H-indole], the cAMP production result is on record as “stimulates cAMP production”.

Source of the values: patent US20110319451A1, “5-Ht6 Receptor and Modulators Thereof for the Treatment of Insulin-Related Disorders” (priority 2008, published 2011).
